Experimental data as given in US20260384421A1, “NOVEL COMPOUNDS THAT CAN BE USED AS THERAPEUTIC AGENTS” (published 2026).

Assays:
[1] = tested on: NB-4 cells; assay: alamarBlue proliferation assay with NB-4 cells; conditions: read-out: Activity on NB-4: IC50, RPMI 1640 medium, 10% FBS
[2] = tested on: LL/2 cells; assay: alamarBlue proliferation assay with LL/2 cells; conditions: read-out: Activity on LL/2: IC50; LL/2 murine Lewis lung carcinoma cells, DMEM medium, 10% FBS
[3] = tested on: MDA-MB-231 cells; assay: alamarBlue proliferation assay with MDA-MB-231 cells (glucose-free Leibovitz's L-15 medium)
[4] = tested on: HCT-116 cells; assay: alamarBlue proliferation assay with HCT-116 cells; conditions: read-out: Activity on HCT-116: IC50, McCoy's 5A medium, 10% FBS
[5] = tested on: TANQUE cells; assay: alamarBlue proliferation assay with TANQUE cells; conditions: read-out: Activity on TANOUE: IC50, RPMI 1640 medium, 10% FBS
[6] = tested on: A-549 cells; assay: alamarBlue proliferation assay with A-549 cells; conditions: read-out: Activity on A-549: IC50, DMEM medium, 10% FBS
[7] = tested on: HPEKp cells; assay: proliferation assay with human epidermal keratinocyte progenitors (HPEKp), selectivity versus MDA-MB-231
[8] = tested on: BHY cells; assay: alamarBlue proliferation assay with BHY cells; conditions: read-out: Activity on BHY: IC50, DMEM medium, 10% FBS
[9] = read-out: Activity (MDA), MDA-MB-231 cells, antiproliferative activity, class by IC50
[10] = read-out: Activity on MDA-MB-231 (IC50), glucose-free Leibovitz's L-15, 10% FBS, day 5, alamarBlue
[11] = read-out: Activity (HPEK), HPEK cells (HPEKp), antiproliferative activity, class by IC50

| IC50 [3, 9] [nM] | IC50 [3, 10] [nM] | IC50 [4] [nM] | IC50 [6] [nM] | IC50 [7, 11] [nM] | IC50 ([3]; read-out: Activity (MDA): antiproliferative activity on MDA-MB-231 cells, IC50 category, MDA-MB-231 cells cultivated in glucose-free Leibovitz's L-15 medium) [nM] | IC50 ([7]; read-out: Activity (HPEK): antiproliferative activity on HPEK cells, IC50 category, HPEK cells cultivated in CnT-Prime medium) [nM] | Compound | IC50 [1] [nM] | IC50 [2] [nM] | IC50 [5] [nM] | IC50 [8] [nM] |
| --- | --- | --- | --- | --- | --- | --- | --- | --- | --- | --- | --- |
| < 1000 | ≤ 200 | ≤ 200 | ≤ 200 | < 5000 |  |  | COC1CCC(c2ccc(Oc3ccc(C(=O)N4CCN(Cc5ccc(C(F)(F)F)cc5)CC4)cc3)c(CO)c2)CC1 (stereo not drawn) | ≤ 200 | ≤ 200 | ≤ 200 | ≤ 200 |
| < 1000 | ≤ 200 | ≤ 200 | ≤ 200 | > 10000 |  |  | COc1ccc(CN2CCN(C(=O)c3ccc(Oc4ccc(C5CCC(OC)CC5)cc4CO)cc3)CC2)cc1 (stereo not drawn) | ≤ 200 | ≤ 200 | ≤ 200 | ≤ 200 |
| < 1000 | ≤ 200 | ≤ 200 | ≤ 200 | < 5000 |  |  | COC1CCC(c2ccc(Oc3ccc(C(=O)N4CCN(Cc5ccc(OCC(F)(F)F)cc5)CC4)cc3)c(CO)c2)CC1 (stereo not drawn) | ≤ 200 | ≤ 200 | ≤ 200 | ≤ 200 |
| < 1000 | ≤ 200 | ≤ 200 | ≤ 200 | < 5000 |  |  | COCC1(COC)CCC(c2ccc(Oc3ccc(C(=O)N4CCN(Cc5ccc(Cl)cc5)CC4)cc3)c(CO)c2)CC1 | ≤ 200 | ≤ 200 | ≤ 200 | ≤ 200 |
| < 1000 | ≤ 200 | ≤ 200 | ≤ 200 | < 5000 |  |  | COCC1(COC)CCC(c2ccc(Oc3ccc(C(=O)N4CCN(Cc5ccc(OC)cc5)CC4)cc3)c(CO)c2)CC1 | ≤ 200 | ≤ 200 | ≤ 200 | ≤ 200 |
| < 1000 | ≤ 200 | ≤ 200 | ≤ 200 | < 5000 |  |  | O=C(c1ccc(Oc2ccc(C3CCCCC3)cc2CO)cc1)N1CCN(Cc2ccc(Cl)cc2)CC1 | ≤ 200 | ≤ 1000 | ≤ 200 | ≤ 200 |
| < 1000 | ≤ 200 | ≤ 200 | ≤ 200 | < 10000 |  |  | COC1CCC(c2ccc(Oc3ccc(C(=O)N4CCN(Cc5ccc(OC(F)(F)F)cc5)CC4)cc3)c(CO)c2)CC1 (stereo not drawn) | ≤ 200 | ≤ 200 | ≤ 200 | ≤ 200 |
| < 1000 | ≤ 200 | ≤ 200 | ≤ 200 | < 5000 |  |  | COc1ccc(CN2CCN(C(=O)c3ccc(Oc4ccc(C5CCCCC5)cc4CO)cn3)CC2)cc1 | ≤ 200 | ≤ 5000 | ≤ 200 | ≤ 200 |
|  |  | ≤ 200 | ≤ 200 |  |  |  | O=C(c1ccc(Oc2ccc(C3CCCCC3)cc2CO)cc1)N1CCN(Cc2ccc(OC(F)(F)F)cc2)CC1 | ≤ 200 | ≤ 200 | ≤ 200 | ≤ 200 |
| < 1000 | ≤ 200 | ≤ 200 | ≤ 200 | < 5000 |  |  | COc1ccc(CN2CCN(C(=O)c3ccc(Oc4ccc(C5CCCCC5)cc4CO)cc3)CC2)cc1 | ≤ 200 | ≤ 5000 | ≤ 200 | ≤ 200 |
| < 1000 | ≤ 200 | ≤ 200 | ≤ 200 | < 10000 |  |  | COc1ccc(CN2CCN(C(=O)c3ccc(Oc4ccc(C5CCC(OC)CC5)cc4CO)cn3)CC2)cc1 (stereo not drawn) | ≤ 200 | ≤ 200 | ≤ 200 | ≤ 200 |
| < 1000 | ≤ 200 | ≤ 200 | ≤ 200 | < 10000 |  |  | COC1CCC(c2ccc(Oc3ccc(C(=O)N4CCN(Cc5ccc(Cl)cc5)CC4)cc3)c(CO)c2)CC1 (stereo not drawn) | ≤ 200 | ≤ 200 | ≤ 200 | ≤ 200 |

The next lines start with the compound.

| Compound | IC50 [3, 9] [nM] | IC50 [3, 10] [nM] | IC50 [4] [nM] | IC50 [6] [nM] | IC50 [7, 11] [nM] | IC50 ([3]; read-out: Activity (MDA): antiproliferative activity on MDA-MB-231 cells, IC50 category, MDA-MB-231 cells cultivated in glucose-free Leibovitz's L-15 medium) [nM] | IC50 ([7]; read-out: Activity (HPEK): antiproliferative activity on HPEK cells, IC50 category, HPEK cells cultivated in CnT-Prime medium) [nM] | IC50 [1] [nM] | IC50 [2] [nM] | IC50 [5] [nM] | IC50 [8] [nM] |
| --- | --- | --- | --- | --- | --- | --- | --- | --- | --- | --- | --- |
| COc1cc(C2CCC(OC)CC2)ccc1Oc1ccc(C(=O)N2CCN(Cc3ccc(Cl)cc3)CC2)cc1 (stereo not drawn) |  |  | ≤ 200 | ≤ 200 |  |  |  | ≤ 1000 | ≤ 5000 | ≤ 200 | ≤ 200 |
| COC1CCC(c2ccc(Oc3ccc(C(=O)N4CCN(Cc5cnc6ccccc6c5)CC4)nc3)c(CO)c2)CC1 (stereo not drawn) | < 1000 | ≤ 200 | ≤ 200 | ≤ 200 | < 10000 |  |  | ≤ 200 | ≤ 200 | ≤ 200 | ≤ 200 |
| COc1ccc(CN2CCN(C(=O)c3ccc(Oc4ccc(C5CCC(OC)CC5)cc4O)cn3)CC2)cc1 (stereo not drawn) |  |  | ≤ 1000 | ≤ 200 |  |  |  | ≤ 1000 |  | ≤ 1000 | ≤ 1000 |
| COC1CCC(c2ccc(Oc3ccc(C(=O)N4CCN(Cc5ccc(C(F)(F)F)cc5)CC4)nc3)c(CO)c2)CC1 (stereo not drawn) | < 1000 | ≤ 200 | ≤ 200 | ≤ 200 | < 5000 |  |  | ≤ 200 | ≤ 200 | ≤ 200 | ≤ 200 |
| O=C(c1ccc(Oc2ccc(C3CCCCC3)cc2CO)cn1)N1CCN(Cc2ccc(OC(F)(F)F)cc2)CC1 |  |  | ≤ 200 | ≤ 200 |  |  |  | ≤ 200 | ≤ 1000 | ≤ 200 | ≤ 200 |
| COC1CCC(c2ccc(Oc3ccc(C(=O)N4CCN(Cc5ccc6ccccc6c5)CC4)nc3)c(CO)c2)CC1 (stereo not drawn) | < 1000 | ≤ 200 | ≤ 200 | ≤ 200 | < 5000 |  |  | ≤ 200 | ≤ 200 | ≤ 200 | ≤ 200 |
| COC1CCC(c2ccc(Oc3ccc(C(=O)N4CCN(Cc5ccccc5)CC4)nc3)c(CO)c2)CC1 (stereo not drawn) | < 1000 | ≤ 200 | ≤ 200 | ≤ 200 | < 10000 |  |  | ≤ 200 | ≤ 5000 | ≤ 200 | ≤ 200 |
| COc1ccc(CN2CCN(C(=O)c3ccc(Oc4ccc(C5CCC(OC)CC5)cc4)cc3)CC2)cc1 (stereo not drawn) | < 1000 | ≤ 200 | ≤ 200 | ≤ 200 | < 10000 |  |  | ≤ 200 | ≤ 5000 | ≤ 200 | ≤ 1000 |
| COC1CCC(c2ccc(Oc3ccc(C(=O)N4CCN(Cc5ccc(C(F)(F)F)cn5)CC4)cc3)c(CO)c2)CC1 (stereo not drawn) | < 1000 | ≤ 200 | ≤ 200 | ≤ 200 | < 10000 |  |  | ≤ 200 | ≤ 200 | ≤ 200 | ≤ 200 |
| O=Cc1cc(C2CCC3(CC2)SCCCS3)ccc1Oc1ccc(C(=O)N2CCN(Cc3ccc(Cl)cc3)CC2)nc1 |  | ≤ 200 | ≤ 200 | ≤ 200 |  |  |  | ≤ 200 | ≤ 200 | ≤ 200 | ≤ 200 |
| COc1ccc(CN2CCN(C(=O)c3ccc(Oc4ccc(C5CCC6(CC5)SCCCS6)cc4CO)cn3)CC2)cc1 | < 1000 | ≤ 200 | ≤ 200 | ≤ 200 | < 5000 |  |  | ≤ 200 | ≤ 1000 | ≤ 200 | ≤ 200 |
| COC1CCC(c2ccc(Oc3ccc(C(=O)N4CCN(Cc5ccc(Cl)cn5)CC4)cc3)c(CO)c2)CC1 (stereo not drawn) | < 1000 | ≤ 200 | ≤ 200 | ≤ 200 | < 10000 |  |  | ≤ 200 | ≤ 200 | ≤ 200 | ≤ 200 |
| O=C(c1ccc(Oc2ccc(C3CCC4(CC3)SCCS4)cc2CO)cn1)N1CCN(Cc2ccc(Cl)cc2)CC1 | < 1000 | ≤ 200 | ≤ 200 | ≤ 200 | < 10000 |  |  | ≤ 200 | ≤ 1000 | ≤ 200 | ≤ 200 |
| O=C(c1ccc(Oc2ccc(C3CCC4(CC3)SCCCS4)cc2CO)cn1)N1CCN(Cc2ccc(Cl)cc2)CC1 | < 1000 | ≤ 200 | ≤ 200 | ≤ 200 | < 5000 |  |  | ≤ 200 | ≤ 200 | ≤ 200 | ≤ 200 |
| COC1CCC(c2ccc(Oc3ccc(C(=O)N4CCN(Cc5ccc(S(F)(F)(F)(F)F)cc5)CC4)cc3)c(CO)c2)CC1 (stereo not drawn) | < 1000 | ≤ 200 | ≤ 200 | ≤ 200 | < 5000 |  |  | ≤ 200 | ≤ 200 | ≤ 200 | ≤ 200 |
| O=C(c1ccc(Oc2ccc(C3CCC4(CC3)OCCO4)cc2CO)cc1)N1CCN(Cc2ccc3ccccc3c2)CC1 |  | ≤ 200 |  |  |  | < 1000 | < 10000 |  |  |  |  |
| COC1CCC(c2ccc(Oc3ccc(C(=O)N4CCN(Cc5ccc(C(F)(F)F)nc5)CC4)cc3)c(CO)c2)CC1 (stereo not drawn) | < 1000 | ≤ 200 | ≤ 200 | ≤ 200 | < 5000 |  |  | ≤ 200 | ≤ 200 | ≤ 200 | ≤ 200 |

Read-outs that look alike come from different tables or passages of the source.
